Laboratory results: ChEMBL document CHEMBL1127907, “Design of a potent 5-HT4 receptor agonist with nanomolar affinity” (Bioorg Med Chem Lett, 1994)

By UniProt entry, the sequences of proteins in these tests, tags left out. Where a name states a change or a piece, a line headed by the entry shows the natural chain unless it says otherwise.
UniProt O70528: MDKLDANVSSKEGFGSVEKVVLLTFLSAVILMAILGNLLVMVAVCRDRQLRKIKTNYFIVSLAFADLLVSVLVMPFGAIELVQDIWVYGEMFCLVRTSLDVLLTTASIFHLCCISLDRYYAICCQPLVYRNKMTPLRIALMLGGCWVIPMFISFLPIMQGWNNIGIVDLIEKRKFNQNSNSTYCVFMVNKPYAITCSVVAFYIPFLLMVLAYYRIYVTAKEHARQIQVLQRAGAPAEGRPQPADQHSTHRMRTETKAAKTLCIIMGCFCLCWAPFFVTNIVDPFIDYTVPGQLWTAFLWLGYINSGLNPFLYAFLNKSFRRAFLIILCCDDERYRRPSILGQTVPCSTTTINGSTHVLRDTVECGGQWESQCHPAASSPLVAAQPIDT

Target: 5-hydroxytryptamine receptor 4 (Cavia porcellus) (UniProt O70528)
Assay: 5-hydroxytryptamine 4 receptor agonist activity as percent maximum 5-HT effect in response to electrical stimulation in male guinea pig ileum
Format: functional, tissue-based

| SMILES | Activity |
| --- | --- |
| COc1cc(N)c(Cl)cc1C(=O)O[C@@H]1CN2CCC1CC2 | 54% |
| COc1cc(N)c(Cl)cc1C(=O)O[C@H]1CN2CCC1CC2 | 75% |
